Measurements: article PMC7190983, “A Putative Efflux Transporter of the ABC Family, YbhFSR, in Escherichia coli Functions in Tetracycline Efflux and Na^+(Li^+)/H^+ Transport” (Frontiers in Microbiology, 2020)

Test system: Nc1ncnc2c1ncn2[C@@H]1O[C@H](COP(=O)(O)OP(=O)(O)OP(=O)(O)O)[C@@H](O)[C@H]1O
Experiment: purified protein
Conditions: 100 mM HEPES pH 7.4, 2.5 mM MgSO4, 30 °C, purified His6-YbhF alone

YbhF (Overexpression-YbhF) (Escherichia coli K-12)
Km: 500 ± 100 µM | Vmax: 0.192 µmol/min/mg
